The values below come from patent US7829568B2, “Substituted 5,6,7,8-tetrahydroimidazo[1,2-a]pyridin-2-ylamine compounds and their use for producing drugs” (Gruenenthal GmbH, priority 2005, dated 2010).

Chains of the proteins cited; added tags and fusions are not shown.
UniProt O35433, whole entry: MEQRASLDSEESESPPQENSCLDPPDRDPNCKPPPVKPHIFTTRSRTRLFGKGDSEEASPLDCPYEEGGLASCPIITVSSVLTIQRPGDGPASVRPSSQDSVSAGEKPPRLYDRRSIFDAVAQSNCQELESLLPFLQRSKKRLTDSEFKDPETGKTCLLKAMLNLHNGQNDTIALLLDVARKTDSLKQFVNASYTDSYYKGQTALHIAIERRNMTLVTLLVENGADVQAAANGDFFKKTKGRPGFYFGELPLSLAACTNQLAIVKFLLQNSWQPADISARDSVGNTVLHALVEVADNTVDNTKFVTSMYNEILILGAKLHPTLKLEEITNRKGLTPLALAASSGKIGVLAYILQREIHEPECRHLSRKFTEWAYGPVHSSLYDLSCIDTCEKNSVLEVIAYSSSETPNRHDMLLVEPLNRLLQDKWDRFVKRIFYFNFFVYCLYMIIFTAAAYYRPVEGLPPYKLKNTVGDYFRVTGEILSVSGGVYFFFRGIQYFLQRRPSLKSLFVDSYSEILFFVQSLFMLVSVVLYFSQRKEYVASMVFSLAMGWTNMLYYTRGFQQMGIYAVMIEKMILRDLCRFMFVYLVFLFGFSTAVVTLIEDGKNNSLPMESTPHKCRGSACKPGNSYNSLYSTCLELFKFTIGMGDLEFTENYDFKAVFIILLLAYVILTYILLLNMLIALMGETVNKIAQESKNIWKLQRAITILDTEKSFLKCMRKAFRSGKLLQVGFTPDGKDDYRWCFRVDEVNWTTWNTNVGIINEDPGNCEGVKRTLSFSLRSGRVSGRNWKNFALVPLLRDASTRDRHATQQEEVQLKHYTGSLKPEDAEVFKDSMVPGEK

This test concerns the target vanilloid receptor 1 (VR1/TRPV1) of rats (Rattus norvegicus, UniProt O35433). Description: Functional analysis on the vanilloid receptor 1 (FLIPR Ca2+ influx assay in rat dorsal root ganglia cells). As to conditions: for inhibition at 10 µM: read-out: VR1 (rat) (% inhibition in comparison with 10 μM CP); for activation at 10 µM: read-out: VR1 (rat) (% stimulation in comparison with 10 μM CP).

“4-methyl-2-({2-[methyl-(naphthalene-1-carbonyl)-amino]-5,6,7,8-tetrahydro-imidazo[1,2-a]pyridine-3-carbonyl}-amino)-valeric acid tert-benzyl ester [Example 184]”: under “compound 10 μM, then 100 nM capsaicin after 5 min, rat DRG cells, relative to maximum inhibition with 10 μM capsaicin”, the “VR1 (rat) (% inhibition in comparison with 10 μM CP)” value is 41%. Where the note is “compound 10 μM, rat DRG cells, Ca2+ signal relative to 10 μM capsaicin (CP)”, the “VR1 (rat) (% stimulation in comparison with 10 μM CP)” value was 35%. For orientation: inhibition means the change of the read-out against control, counted positive when it falls. For `CCCCN(C(=O)c1ccc(F)c(F)c1)c1nc2n(c1C(=O)NC1CCc3ccccc31)CCCC2` (stereo not drawn) [Example 12, 2-[butyl-(3,4-difluoro-benzoyl)-amino]-5,6,7,8-tetrahydro-imidazo[1,2-a]pyridine-3-carboxylic acid indan-1-ylamide], the inhibition at 10 µM is 73% and the activation at 10 µM was 48%. Take `CCCCN(C(=O)c1ccc(F)c(F)c1)c1nc2n(c1C(=O)NC1CCC(C)CC1)CCCC2` (stereo not drawn) [Example 16, 2-[butyl-(3,4-difluoro-benzoyl)-amino]-5,6,7,8-tetrahydro-imidazo[1,2-a]pyridine-3-carboxylic acid (4-methyl-cyclohexyl)-amide]: the inhibition at 10 µM was 100% and the activation at 10 µM came to 90%. Take `CCCCN(C(=O)c1cccc(Cl)c1)c1nc2n(c1C(=O)NC(C)C(C)C)CCCC2` (stereo not drawn) [Example 19, 2-[butyl-(3-chloro-benzoyl)-amino]-5,6,7,8-tetrahydro-imidazo[1,2-a]pyridine-3-carboxylic acid (1,2-dimethyl-propyl)-amide]: the inhibition at 10 µM came out at 87% and the activation at 10 µM worked out at 49%. Turning to `CCCCN(C(=O)c1ccc(F)c(F)c1)c1nc2n(c1C(=O)NCCCc1ccccc1)CCCC2` [Example 28, 2-[butyl-(3,4-difluoro-benzoyl)-amino]-5,6,7,8-tetrahydro-imidazo[1,2-a]pyridine-3-carboxylic acid (3-phenyl-propyl)-amide], the inhibition at 10 µM is 43%. Consider `CCC(C)C(NC(=O)c1c(N(C)C(=O)c2cccc(Cl)c2)nc2n1CCCC2)C(=O)OC(C)(C)C` (stereo not drawn) [Example 38, 2-({2-[(3-chloro-benzoyl)-methyl-amino]-5,6,7,8-tetrahydro-imidazo[1,2-a]pyridine-3-carbonyl}-amino)-3-methyl-pentanoic acid tert-butyl ester], for which the inhibition at 10 µM was found to be 40%. For `CCCCN(C(=O)c1cccc(Cl)c1)c1nc2n(c1C(=O)NC(C)c1cccc3ccccc13)CCCC2` (stereo not drawn) [Example 39, 2-[butyl-(3-chloro-benzoyl)-amino]-5,6,7,8-tetrahydro-imidazo[1,2-a]pyridine-3-carboxylic acid (1-naphthalen-1-yl-ethyl)-amide], the inhibition at 10 µM worked out at 99% and the activation at 10 µM was determined as 38%.

As to `CC(C)CC(NC(=O)c1c(N(C)C(=O)c2cccc(Cl)c2)nc2n1CCCC2)C(=O)OCc1ccccc1` (stereo not drawn) [Example 42, 2-({2-[(3-chloro-benzoyl)-methyl-amino]-5,6,7,8-tetrahydro-imidazo[1,2-a]pyridine-3-carbonyl}-amino)-4-methyl-pentanoic acid benzyl ester], the inhibition at 10 µM was 90% and the activation at 10 µM was found to be 43%. In the same order, the values of `CCCCN(C(=O)c1cccc(Cl)c1)c1nc2n(c1C(=O)NCc1ccccc1OCC)CCCC2` [Example 43, 2-[butyl-(3-chloro-benzoyl)-amino]-5,6,7,8-tetrahydro-imidazo[1,2-a]pyridine-3-carboxylic acid 2-ethoxy-benzylamide] are 104% and 59%.

In the case of `CCCCN(C(=O)c1cccc(Cl)c1)c1nc2n(c1C(=O)NCc1ccc(F)cc1F)CCCC2` [Example 47, 2-[butyl-(3-chloro-benzoyl)-amino]-5,6,7,8-tetrahydro-imidazo[1,2-a]pyridine-3-carboxylic acid 2,4-difluoro-benzylamide], the inhibition at 10 µM is 81% and the activation at 10 µM is 60%.
